{"source": "paper PMC4324837", "about": "(Antiviral research, 2014)", "key": {"CMV AD169IE2-YFP": {"system": "CMV AD169IE2-YFP", "test": "in vitro", "assay_type": "cell-based, Human cytomegalovirus", "details": "MRC5 cells"}, "[1]": {"test": "CC50 / cell viability by NucGreen staining, MRC5 cells", "assay_type": "cell-based", "details": "human"}}}
{"molecule": "COc1ccc(C[C@H]2NC[C@H](O)[C@H]2OC(C)=O)cc1", "note": "[Anisomycin]", "values": [{"measurement": "Selective Ratio (CC50/EC50)", "setting": "CMV AD169IE2-YFP", "result": ">29"}, {"measurement": "selectivity ratio", "setting": "CMV AD169IE2-YFP; human, Selective Ratio (CC50/EC50)", "result": "~30"}, {"measurement": "CC50 at 19 h", "setting": "[1]", "result": "> 5", "unit": "µM"}]}
